Results reported in PMC4613828 (PLoS Pathogens, 2015).

What was measured:
Assay in all cases: Virus-cell-based antiviral assay (CPE reduction, MTS)
CVA9 (strain Bozek) = system: CVA9 (strain Bozek); set-up: species or system Coxsackie A9; conditions: Enterovirus B, CVA9, BGM
CVA16 (strain G-10) = system: CVA16 (strain G-10); set-up: species or system coxsackievirus A16; conditions: Enterovirus A, CVA16, HeLa H1
CVA21 (strain Coe) = conditions: BGM
CVB3 (strain Nancy) = system: CVB3 (strain Nancy); set-up: species or system Coxsackievirus B3; conditions: Enterovirus B, CVB3, BGM
CVB4 (strain E2 Edwards) = conditions: Enterovirus B, CVB4, BGM
[1] = system: ECHO11 (echovirus 11 strain Gregory); conditions: Enterovirus B, BGM
[2] = system: HRV02 (human rhinovirus type 2); conditions: Human rhinovirus sp., HRV02, HeLa H1
[3] = system: HRV14 (human rhinovirus type 14); conditions: Human rhinovirus sp., HRV14, HeLa H1
[4] = system: EV71-B2 (strain 11316 genogroup B2); set-up: species or system enterovirus 71; conditions: Enterovirus A, EV71, RD
[5] = system: EV71-B5 (strain TW/96016/08 genogroup B5); set-up: species or system enterovirus 71; conditions: Enterovirus A, EV71, RD

## CCON=Cc1ccc(OCCC(C)CCN2CCN(c3ccnc(N)c3)C2=O)cc1 (stereo not shown) [NLD]
CVA9 (strain Bozek)
  EC50: 6 ± 1 µM
CVA16 (strain G-10)
  EC50: 0.00012 ± 4e-05 µM
CVA21 (strain Coe)
  EC50: 0.013 ± 0.008 µM
CVB3 (strain Nancy)
  EC50: 2.6 ± 0.2 µM
CVB4 (strain E2 Edwards)
  EC50: > 17 µM
[1]
  EC50: 1.3 ± 0.2 µM
[2]
  EC50: 2.4 µM
[3]
  EC50: > 5 µM
[4]
  EC50: 0.00053 ± 5e-05 µM
[5]
  EC50: 0.0014 ± 0.0003 µM
